The list shows a part of the results, in another mix than the full data. Some tests of the compounds listed are not included; inactive here does not mean inactive elsewhere. Active and inactive are the calls of the source. The call rests on the fitted dose curve; in most records, active means well fitted activation curve with a large enough effect; inconclusive means small, poorly fitted or top-dose-only effect, or another doubt; inactive means no such curve, though single readings can be large or run the other way.
Molecular target: Beta-2 adrenergic receptor (Homo sapiens) (UniProt P07550)
Assay: qHTS assay of beta-arrestin-biased ligands of beta2-adrenergic receptor: NCGC Sytravon Library Screen;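 further: 0% = DMSO and full agonism = EC100 isoproterenol or metaproterenol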
Conditions: HTLA Tango cells, beta-arrestin recruitment, luciferase luminescence, 18 h; at 46.1 µM (top of the series)
Source text: The concept of biased agonism is an emerging concept of molecular pharmacology which proposes that seven transmembrane receptors (7TMRs) or G protein-coupled receptors (GPCRs), exist in multiple signaling conformations and complexes and that ligands (either agonists or antagonists) can induce signaling biased responses for distinct signal transduction cascades. […] Furthermore, accumulating evidence over the last decade has drawn attention to a novel function of beta-arrestins as signal transducers that scaffold various signaling molecules upon activation of 7TMRs. […] This beta-arrestin-biased signaling presumably leads to distinct physiological outcomes from those by G protein activation. Additionally, the active receptor conformations which prefer on this beta-arrestin signaling are likely different from those activating G protein signaling. […] The goal of this screening project will be to discover and optimize novel beta-arrestin-biased ligands for beta2-AR signaling. A luminescent cell-based assay for beta2-AR-mediated agonism, known as the Tango assay, has been validated in which ligand binding of a recombinant beta2-AR and subsequent recruitment of a recombinant beta-arrestin lead to the release of the transcriptional activator tTA, which upregulates transcription of a tTA-responsive luciferase gene. […] Compounds from the NCGC Sytravon Library collection were screened as a concentration-titration series that ranged from 46 microM to 0.6 nM. NIH Molecular Libraries Probe Production Network [MLPCN] NIH Chemical Genomics Center [NCGC] MLPCN Grant: Fast-track/HHSN271700800025C PI: Bryan Roth and Bob Lefkowitz
Tango cells were dispensed into white, solid, tissue-culture-treated 1536-well plates at 1500 cells/well in DMEM, containing 1% fetal bovine serum (FBS). Then, 23 nL of compounds or DMSO were delivered to each well using a pin tool. Plates were incubated at 37 degrees C, 5% CO2 for 18 hr. Then 2.5 uL luminescent substrate mix (in-house prepared: 150 mM Tris-Cl, pH 7.6, 3 mM MgCl2, 1% Triton X-100, 5 mM DTT, 0.5 mM CoA, 0.15 mM ATP, 0.44 mM D-luciferin, final concentrations) was added to each well. Plates were then incubated for 15 minutes at room temperature, and subsequently measured on a ViewLux plate reader for luminescent signal using a clear filter with a 10 second exposure and 2x binning. The %Activity was determined from the corrected luminescence values. […] Concentration-response curves were fitted to the signals arising from the resulting luminescence. The concentration-effect curves were then classified based on curve quality (r2), response magnitude and degree of measured activity, and compounds were subsequently categorized based on their curve class.

Sequences of proteins named here, by UniProt entry; tags and fusion partners are left off.
UniProt P07550, whole entry: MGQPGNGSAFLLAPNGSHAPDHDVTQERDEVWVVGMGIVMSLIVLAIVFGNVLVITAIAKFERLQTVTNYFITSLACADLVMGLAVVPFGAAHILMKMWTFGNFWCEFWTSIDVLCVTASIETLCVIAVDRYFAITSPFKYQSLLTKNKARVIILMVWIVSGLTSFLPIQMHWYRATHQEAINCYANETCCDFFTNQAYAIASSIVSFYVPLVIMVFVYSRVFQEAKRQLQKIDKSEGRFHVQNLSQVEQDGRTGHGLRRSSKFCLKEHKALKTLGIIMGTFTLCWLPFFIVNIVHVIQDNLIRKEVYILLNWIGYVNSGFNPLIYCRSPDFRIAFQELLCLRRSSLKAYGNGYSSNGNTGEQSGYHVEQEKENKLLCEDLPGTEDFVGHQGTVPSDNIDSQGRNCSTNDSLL

Row | SMILES | activation
1 | CN(C)C1(CNC(=O)c2ccccc2[N+](=O)[O-])CCCCC1 | inactive: -4%
2 | CCCCOc1ccccc1C(=O)NCC1(N(C)C)CCCCC1 | inactive: -4.07%
3 | CCOc1cccc(C(=O)NCC2(N(C)C)CCCCC2)c1 | inactive: -0.878%
4 | CN(C)C1(CNC(=O)c2cccc(Cl)c2)CCCCC1 | inactive: -3.14%
5 | CN(C)C1(CNC(=O)c2ccccc2F)CCCCC1 | inactive: -3.4%
6 | COc1cccc(C(=O)NCC2(N3CCOCC3)CCCCC2)c1 | inactive: -2.29%
7 | CC(C)COc1ccc(C(=O)NCC2(N(C)C)CCCCC2)cc1 | inactive: -3.33%
8 | Cc1cccc(C(=O)NCC2(N(C)C)CCCCC2)c1 | inactive: -3.76%
9 | COc1cc(C(=O)NCC2(N(C)C)CCCCC2)cc(OC)c1OC | inactive: -1.37%
10 | CC(C)Oc1ccc(C(=O)NCC2(N(C)C)CCCCC2)cc1 | inactive: -4.55%
11 | COc1ccc(C(=O)NCC2(N(C)C)CCCCC2)cc1Cl | inactive: -2.98%
